Experiments:
Adenosine receptor A1 = Adenosine receptor A1 (Homo sapiens, UniProt P30542); assay: Binding affinity to human adenosine A1A receptor expressed in human HEK293 cell membrane at 10 uM by radioligand inhibition assay; type: cell membranes
Adenosine receptor A2a = Adenosine receptor A2a (Homo sapiens, UniProt P29274); assay: Binding affinity to human adenosine A2A receptor expressed in human HEK293 cell membrane at 10 uM by radioligand inhibition assay; type: cell membranes

The chains behind the UniProt entries cited, without tags or fusion partners.
UniProt P30542, whole entry: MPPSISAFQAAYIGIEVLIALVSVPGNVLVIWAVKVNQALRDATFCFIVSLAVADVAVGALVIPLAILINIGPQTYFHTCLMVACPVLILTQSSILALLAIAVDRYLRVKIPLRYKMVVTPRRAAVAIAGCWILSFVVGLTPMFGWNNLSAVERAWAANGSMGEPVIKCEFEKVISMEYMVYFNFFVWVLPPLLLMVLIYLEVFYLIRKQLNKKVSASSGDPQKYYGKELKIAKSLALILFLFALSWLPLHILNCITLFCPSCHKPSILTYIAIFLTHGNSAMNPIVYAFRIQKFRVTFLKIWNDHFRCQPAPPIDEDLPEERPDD

SMILES | inhibition (Adenosine receptor A1) [%] | inhibition (Adenosine receptor A2a) [%]
CNC(=O)[C@@]12C[C@@H]1[C@@H](n1cnc3c(NCCc4ccc(OC)c(O)c4)nc(OCCCC4CCCCC4)nc31)[C@H](O)[C@@H]2O | 15 | 30
CNC(=O)[C@@]12C[C@@H]1[C@@H](n1cnc3c(NCCc4ccc(OC)c(OC)c4)nc(I)nc31)[C@H](O)[C@@H]2O | 45 | 29

More lines, now with the values ahead:

inhibition (Adenosine receptor A1) [%] | inhibition (Adenosine receptor A2a) [%] | SMILES
25 |  | CNC(=O)[C@@]12C[C@@H]1[C@@H](n1cnc3c(NCCc4ccc(OC)c(O)c4)nc(OCC(C)C)nc31)[C@H](O)[C@@H]2O
31 |  | CNC(=O)[C@@]12C[C@@H]1[C@@H](n1cnc3c(NCCc4ccc(OC)c(O)c4)nc(OCC4CC4)nc31)[C@H](O)[C@@H]2O
16 |  | CNC(=O)[C@@]12C[C@@H]1[C@@H](n1cnc3c(NCCc4ccc(OC)c(O)c4)nc(OCCC(C)C)nc31)[C@H](O)[C@@H]2O

Source: ChEMBL document CHEMBL5154659, “A3 adenosine receptor agonists containing dopamine moieties for enhanced interspecies affinity” (Eur J Med Chem, 2022)
